Assay: Excipient compatibility study (appearance, assay, related substances)
Type: physicochemical
Protocol: In this Example, the physical and chemical compatibility of methylone drug substance, 50 mg with various commonly used solid dosage form excipients, as well as methylone active pharmaceutical ingredient (API) alone, was analyzed. Analyses were conducted at t=0, 2, 4 and 8 weeks for appearance, assay, and related substances for samples stored in closed vials at 25° C./60% RH and 40° C./75% RH.
Excipient Compatibility Sample Mixtures: The excipients and API were dispensed individually by weight into 20 mL clear borosilicate (type I) glass vials to fill the appropriate weights as listed in Table 12. Table 12 lists mixtures of API with varied excipients and a stand-alone control sample of API alone. Each excipient mixture sample preparation was conducted using a clean spatula to mix the vial ingredients for 30-60 seconds. Each vial was properly labeled with the description and storage conditions. One vial was used for testing at the initial (t=0) time point. Three vials, closed, were placed at each storage condition to allow sampling at each time point and one vial, closed, was placed at each storage condition for overage.
Excipient Compatibility Sample Analysis: Each individual vial sampled at the requested time points was analyzed for the following parameters: (a) Appearance (Visual); Assay (HPLC); (c) Related Substances (HPLC).

CNC(C)C(=O)c1ccc2c(c1)OCO2 (stereo not shown) [methylone, 3,4-methylenedioxy-N-methylcathinone]
Assay (% Recovery) (2 Week 25° C./60% RH, closed vial): 99.7% | Assay (% Recovery) (4 Week 40° C./75% RH, closed vial): 99.6% | Assay (% Recovery) (8 Week 25° C./60% RH, closed vial): 98.2% | Assay (% Recovery) (t = 0): 100.6%

— US12343326B2, “Psychoactive medicines and their use for treating psychiatric and neurological conditions and disorders” (Transcend Therapeutics, Inc., priority 2021, dated 2025)
